≈ marks a conversion by molar mass, not a printed value.
Columns and labels:
Format in all cases: cell-based
[1] = system: Bacteriodes thetaiotaomicron ATCC 29741; experiment: In vitro antibiotic activity (MIC) against anaerobes, agar dilution, Wilkins-Chalgren agar; conditions: anaerobe, ~10^5 organisms per spot, 37° C., ~48 hours
Protocol: (§1) Optical rotations were measured on a Perkin-Elmer Model 241 polarimeter in a 10 cm cell. Fast atom bombardment mass spectra were measured on a Kratos MS-50 mass spectrometer. Ultraviolet spectra were recorded on a Perkin-Elmer Lambda 3B UV-visible spectrophotometer and infrared spectra on a Nicolet model 60SX FT-IR attached to a Nicolet computer. NMR spectra were acquired on either a General Electric GN500 or GN300 spectrometer. NMR spectral data are reported in Table 1 (following Example 6 below). Rf values reported were acquired on Analtech TLC plates developed with chloroform:methanol (9:1, v:v) and were visualized using ceric sulfate spray reagent. Melting points were determined on a Hoover Unimelt and are reported uncorrected. Minimal inhibitory concentrations were determined by twofold agar dilution. Brain heart infusion agar was used for aerobes and Wilkins-Chalgren agar for anaerobes.
(§2) For primary screening of compounds of the invention against anaerobic bacteria such as Clostridium, minimal inhibitory concentrations (MICs) were determined by the following agar dilution method: Series of two-fold dilutions of the test compounds were added to Wilkins-Chalgren agar. The agar plates were inoculated with approximately 10^5 organisms per spot of each of the organisms to be tested. The inoculated agar plates were then incubated at 37° C. for approximately 48 hours. The MICs were determined as the minimal concentration of test compound (in […]) that inhibited visible growth.

[2] = system: Clostridium difficile 2532; experiment: as above; conditions: anaerobe, ~10^5 organisms per spot, 37° C., ~48 hours
Protocol: as §1, §2

[3] = system: Clostridium difficile ATCC 17857; experiment: as above; conditions: anaerobe, ~10^5 organisms per spot, 37° C., ~48 hours
Protocol: as §1, §2

[4] = system: Clostridium difficile ATCC 9689; experiment: as above; conditions: anaerobe, ~10^5 organisms per spot, 37° C., ~48 hours
Protocol: as §1, §2

[5] = system: Bacteroides fragilis ATCC 25285; experiment: as above; conditions: anaerobe, ~10^5 organisms per spot, 37° C., ~48 hours
Protocol: as §1, §2

[6] = system: Enterococcus faecium ATCC 8043; experiment: In vitro antibiotic activity (MIC), agar dilution, brain heart infusion agar; conditions: ~10^4 organisms per spot, 37° C., ~20 hours
Protocol: as §1
as §2, with “against selected aerobic microorganisms,” for “against anaerobic bacteria such as Clostridium,”, “to brain heart infusion” for “to Wilkins-Chalgren”, “approximately 10^4” for “approximately 10^5”, “tested. These” for “tested. The”, “approximately 20” for “approximately 48”

[7] = system: Streptococcus pyogenes EES61; experiment: as above; conditions: ~10^4 organisms per spot, 37° C., ~20 hours
Protocol: as §1
as §2, with “against selected aerobic microorganisms,” for “against anaerobic bacteria such as Clostridium,”, “to brain heart infusion” for “to Wilkins-Chalgren”, “approximately 10^4” for “approximately 10^5”, “tested. These” for “tested. The”, “approximately 20” for “approximately 48”

[8] = system: Escherichia coli JUHL; experiment: as above; conditions: ~10^4 organisms per spot, 37° C., ~20 hours
Protocol: as §1
as §2, with “against selected aerobic microorganisms,” for “against anaerobic bacteria such as Clostridium,”, “to brain heart infusion” for “to Wilkins-Chalgren”, “approximately 10^4” for “approximately 10^5”, “tested. These” for “tested. The”, “approximately 20” for “approximately 48”

[9] = system: Staphylococcus epidermidis 3519; experiment: as above; conditions: ~10^4 organisms per spot, 37° C., ~20 hours
Protocol: as §1
as §2, with “against selected aerobic microorganisms,” for “against anaerobic bacteria such as Clostridium,”, “to brain heart infusion” for “to Wilkins-Chalgren”, “approximately 10^4” for “approximately 10^5”, “tested. These” for “tested. The”, “approximately 20” for “approximately 48”

[10] = system: Staphylococcus aureus ATCC 6538P; experiment: as above; conditions: ~10^4 organisms per spot, 37° C., ~20 hours
Protocol: as §1
as §2, with “against selected aerobic microorganisms,” for “against anaerobic bacteria such as Clostridium,”, “to brain heart infusion” for “to Wilkins-Chalgren”, “approximately 10^4” for “approximately 10^5”, “tested. These” for “tested. The”, “approximately 20” for “approximately 48”

CCc1c(Cl)c(O)c(Cl)c(O)c1C(=O)O[C@H]1[C@H](O)[C@H](OC)[C@H](OC/C2=C\C=C\C[C@H](O)/C(C)=C/[C@H](CC)[C@@H](O[C@@H]3OC(C)(C)[C@@H](OC(=O)C(C)C)[C@H](O)[C@@H]3O)/C(C)=C/C(C)=C/C[C@@H]([C@@H](C)O)OC2=O)O[C@@H]1C [Tiacumicin B, tiacumicin B, reference compound]
MIC [1]: > 128 µg/mL | MIC [2]: 0.12 µg/mL (≈ 0.113 µM) | MIC [3]: 0.12 µg/mL (≈ 0.113 µM) | MIC [4]: 0.06 µg/mL (≈ 0.0567 µM) | MIC [5]: > 128 µg/mL | MIC [6]: 1.56 µg/mL (≈ 1.47 µM) | MIC [7]: 6.2 µg/mL (≈ 5.86 µM) | MIC [8]: > 200 µg/mL | MIC [9]: 1.56 µg/mL (≈ 1.47 µM) | MIC [10]: 0.78 µg/mL (≈ 0.737 µM)

4'",6'"-didechloro-4'"-bromotiacumicin C [Ex. 6]
MIC [1]: > 128 µg/mL | MIC [5]: > 128 µg/mL

4'",6'"-didechloro-4'"-bromotiacumicin B [Ex. 5]
MIC [1]: > 128 µg/mL | MIC [5]: > 128 µg/mL
